The assay deals with recombinant human E-selectin/CD63E Fc Chimera (Homo sapiens, UniProt P16581). Put plainly: E-Selectin Activity - Analysis by SPR. The note with it: Biacore X100, E-selectin captured on anti-human IgG (Fc) chip. Background: In SPR one partner is held on a chip, and binding of the other changes the refractive index at the surface.

By UniProt entry, the sequences of proteins in these tests, tags left out. Chains listed by the source or under a name are the forms on record and can include a tag or linker. Residues count along the entry.
UniProt P16581, 22-556 with tags or gaps limits assumed: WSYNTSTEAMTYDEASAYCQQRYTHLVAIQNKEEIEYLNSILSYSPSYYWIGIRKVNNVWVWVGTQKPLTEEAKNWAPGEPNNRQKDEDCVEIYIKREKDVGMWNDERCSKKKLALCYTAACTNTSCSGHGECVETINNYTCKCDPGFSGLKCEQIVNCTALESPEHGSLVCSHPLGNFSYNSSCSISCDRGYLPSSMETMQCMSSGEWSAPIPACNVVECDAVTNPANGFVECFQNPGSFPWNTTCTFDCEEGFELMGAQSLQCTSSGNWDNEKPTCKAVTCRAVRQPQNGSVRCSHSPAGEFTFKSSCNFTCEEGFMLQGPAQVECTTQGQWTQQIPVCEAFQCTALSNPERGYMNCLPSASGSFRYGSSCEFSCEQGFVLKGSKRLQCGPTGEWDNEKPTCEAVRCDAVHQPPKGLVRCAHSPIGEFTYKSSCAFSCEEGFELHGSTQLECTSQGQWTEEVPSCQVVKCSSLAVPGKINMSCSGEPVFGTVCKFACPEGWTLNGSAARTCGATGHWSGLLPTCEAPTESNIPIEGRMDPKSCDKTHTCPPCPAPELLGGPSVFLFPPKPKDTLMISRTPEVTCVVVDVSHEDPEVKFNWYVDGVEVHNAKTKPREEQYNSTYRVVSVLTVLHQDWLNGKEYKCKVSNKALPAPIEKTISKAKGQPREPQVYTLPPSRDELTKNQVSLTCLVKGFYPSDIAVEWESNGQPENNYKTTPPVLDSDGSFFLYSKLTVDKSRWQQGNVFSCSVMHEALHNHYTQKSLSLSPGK

The results in this text go back to patent US20220257775A1 (GLYCOMIMETICS, INC., priority 2019, published 2022).

Turning to `CC[C@H]1C[C@@H](C(=O)NCCNC(=O)c2cn(CCOCCOCCOCCOCCOCCn3cc(C(=O)NCCNC(=O)[C@@H]4C[C@H](CC)[C@@H](O[C@@H]5O[C@@H](C)[C@@H](O)[C@@H](O)[C@@H]5O)[C@H](O[C@@H]5O[C@H](CO)[C@H](O)[C@H](O[C@@H](CC6CCCCC6)C(=O)N6CCC6)[C@H]5NC(C)=O)C4)nn3)nn2)C[C@@H](O[C@@H]2O[C@H](CO)[C@H](O)[C@H](O[C@@H](CC3CCCCC3)C(=O)N3CCC3)[C@H]2NC(C)=O)[C@@H]1O[C@@H]1O[C@@H](C)[C@@H](O)[C@@H](O)[C@@H]1O`, the Kd – broadly, the constant that tells how readily two partners part at equilibrium – came to 2 nM.
